Active and inactive are the calls of the source. The rule behind the calls is not given here.
Legend:
Homo sapiens = species on record: Homo sapiens; test: Selectivity ratio of IC50 for human recombinant LPA3 to IC50 for human recombinant LPA1
HLF = test: Inhibition of LPA-induced proliferation of HLF incubated for 1 hr prior to LPA-challenge measured after 48 hrs by BrdU incorporation assay; type: functional; conditions: Homo sapiens

Row | Ratio IC50 (Homo sapiens) | Structure (SMILES) | inhibition (HLF)
1 | > 850 | C[C@@H](OC(=O)Nc1c(-c2ccc(-c3ccc(CC(=O)O)cc3)cc2)cnn1C)c1ccccc1 | 
2 |  | C[C@H](OC(=O)Nc1c(-c2ccccc2F)cnn1C)c1ccccc1Cl | inactive

Source: ChEMBL document CHEMBL2176934, “Discovery of highly selective and orally active lysophosphatidic acid receptor-1 antagonists with potent activity on human lung fibroblasts” (J Med Chem, 2012)
